System: A431 cells
Experiment: FACS binding of P190-MMB constructs and cetuximab
Format: cell-based, human
Excerpt: In contrast, 190-MMB as the 4316 construct, binds EGFR and the presence of excess EGF promotes its binding.

cetuximab [reference compound]
binding to A431: binds EGFR+ A431
